Drawing on PubChem BioAssay AID1259310 (The Scripps Research Institute Molecular Screening Center, 2017), this text covers normalized activity (activation) for 25 molecules.

Sequences of proteins named here, by UniProt entry; tags and fusion partners are left off.
UniProt Q969H0, whole entry, looked up: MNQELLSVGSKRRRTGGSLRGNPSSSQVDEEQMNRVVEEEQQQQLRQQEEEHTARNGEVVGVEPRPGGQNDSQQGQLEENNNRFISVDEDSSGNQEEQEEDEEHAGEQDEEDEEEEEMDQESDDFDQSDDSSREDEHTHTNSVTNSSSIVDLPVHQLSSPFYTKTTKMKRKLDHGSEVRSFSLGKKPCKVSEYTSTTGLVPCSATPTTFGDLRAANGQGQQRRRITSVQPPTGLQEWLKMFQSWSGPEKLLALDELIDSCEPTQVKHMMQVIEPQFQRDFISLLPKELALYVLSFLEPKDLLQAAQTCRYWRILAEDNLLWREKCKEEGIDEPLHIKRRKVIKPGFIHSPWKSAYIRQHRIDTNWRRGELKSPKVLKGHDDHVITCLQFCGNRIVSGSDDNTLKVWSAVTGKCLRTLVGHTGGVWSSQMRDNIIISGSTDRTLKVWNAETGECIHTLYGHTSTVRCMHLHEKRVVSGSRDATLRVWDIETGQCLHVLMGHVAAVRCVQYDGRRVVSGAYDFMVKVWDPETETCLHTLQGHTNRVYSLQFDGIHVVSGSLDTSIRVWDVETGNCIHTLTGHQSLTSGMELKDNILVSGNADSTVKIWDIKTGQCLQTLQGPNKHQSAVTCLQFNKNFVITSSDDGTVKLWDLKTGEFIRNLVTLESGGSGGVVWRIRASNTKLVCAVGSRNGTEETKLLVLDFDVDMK

This is a selection; strong and weak results do not stand in their true shares. Activity calls are given as the source filed them. Rule as the data show it: active = normalized activity above about 1.9%; inactive = the rest.

The experiment has as its target F-box/WD repeat-containing protein 7 (Homo sapiens) (UniProt Q969H0). Nature of the experiment: FBW7 E3 ligase activators, primary screen, biochemical, AlphaScreen, human (AID 1259310).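 Also: purified mutant Fbw7 with reduced substrate affinity.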 Particulars: AlphaScreen FBW7–phospho-cyclin E peptide binding, activator screen; at 26.1 µM; hits give high values. A general note: Alpha assays give light when donor and acceptor beads are brought close together.
In the case of `CC(=O)OC=C1c2cc([N+](=O)[O-])cc([N+](=O)[O-])c2-c2c1cc([N+](=O)[O-])cc2[N+](=O)[O-]`, the normalized activity (activation) was inactive: -0.21%.

In the case of `Cc1cc(SC(NC(=O)CC(C)C)C(Cl)(Cl)Cl)ncn1` (stereo not given), the normalized activity (activation) was inactive: 0.49%.

`N=C1N=C(c2ccc([N+](=O)[O-])cc2)CC(C(Cl)(Cl)Cl)S1` (stereo not given): the normalized activity (activation) was inactive: -0.3%.

Take `Nc1c([N+](=O)[O-])cc([N+](=O)[O-])c(Nc2cccc(C(=O)O)c2)c1[N+](=O)[O-]`: the normalized activity (activation) was inactive: -0.11%.

For the molecule `Oc1ccccc1CNc1ccccn1`, the normalized activity (activation) is inactive: -0.13%.

As for `COc1ccc2c(c1)nc(NCCCl)n2C`, the normalized activity (activation) was inactive: 0.73%.

In the case of `Nc1cc(N)c2nonc2c1[N+](=O)[O-]`, the normalized activity (activation) was inactive: -0.46%.

On to `O=C(Nc1ccc([N+](=O)[O-])cc1Cl)c1ccc([N+](=O)[O-])cc1[N+](=O)[O-]`, for which the normalized activity (activation) is inactive: 0.04%.

As for `CCOP(=O)(OCC)SCC(=O)NCCC(=O)O`, the normalized activity (activation) was inactive: 0%.

Regarding `COC(=O)c1ccc(OP2(=S)OCC(C)(C)CO2)cc1`, the normalized activity (activation) was inactive: 0.96%.

Take `CCCCOP(=O)(OCCCC)SC`: the normalized activity (activation) is inactive: 0.23%.

On to `CCOc1ccc(/C=C2/C(=O)NC(=O)N(Cc3ccco3)C2=O)cc1`, for which the normalized activity (activation) was inactive: -0.42%.

For the molecule `CCN(CC)C1=NP(=O)(c2ccccc2)NC(c2ccccc2)=C1C#N` (stereo not given), the normalized activity (activation) was inactive: -0.04%.

As to `Cc1cc(C)nc(SC(NC(=O)C(C)C)C(Cl)(Cl)Cl)n1` (stereo not given), the normalized activity (activation) was inactive: -0.07%.

As for `CCOC(=O)N1C2CCC1CC(OC(=O)C(O)(c1ccccc1)c1ccccc1)C2` (stereo not given), the normalized activity (activation) is inactive: -0.07%.

Turning to `COc1ccc(CCN2CCC(N(Cc3ccco3)C(=O)NC(C)C)CC2)cc1`, the normalized activity (activation) is inactive: -0.06%.

As to `Cc1ccc(N/C(=N/P(=O)(N2CCOCC2)N2CCOCC2)N2CCOCC2)cc1`, the normalized activity (activation) was inactive: 0.46%.

Consider `NC(=O)c1cc([N+](=O)[O-])cc([N+](=O)[O-])c1N`, for which the normalized activity (activation) was inactive: -0.02%.

Regarding `O=C(Nc1ccc(C(F)(F)F)cc1[N+](=O)[O-])c1cc([N+](=O)[O-])cc([N+](=O)[O-])c1`, the normalized activity (activation) is inactive: -0.03%.

On to `COc1ccc(NC2=NCC(CBr)S2)cc1` (stereo not given), for which the normalized activity (activation) was inactive: -0.18%.

On to `CCOP(=O)(OCC)C(=O)c1ccccc1Cl`, for which the normalized activity (activation) is inactive: -0.1%.

For the molecule `O=C(Nc1ccccc1[N+](=O)[O-])c1ccc([N+](=O)[O-])cc1[N+](=O)[O-]`, the normalized activity (activation) was inactive: -0.03%.

In the case of `CN(C(=O)COC(=O)C(O)(c1ccccc1)c1ccccc1)c1ccccc1`, the normalized activity (activation) was inactive: 0.38%.

For `O=[N+]([O-])c1ccc(Oc2ccccc2[N+](=O)[O-])c([N+](=O)[O-])c1`, the normalized activity (activation) is inactive: 0.44%.

As to `O=[N+]([O-])c1cc([N+](=O)[O-])c(CCN2CCOCC2)c([N+](=O)[O-])c1`, the normalized activity (activation) was inactive: 0.37%.
